Source: patent US11021711B2, “Genetic variations associated with drug resistance” (GENENTECH, Inc., priority 2008, dated 2021)

Test system: EFM-192A cells
Assay: Mitotic index (phospho histone H3) after ABCC3 or control siRNA, EFM-192A
Assay type: cell-based, human
Experimental: High content screening assays were carried out on an Arrayscan VTI (Cellomics Inc, Pittsburgh, Pa.). Cells were transfected in 96 well format using siRNA “Smartpool” oligonucleotides purchased from Dharmacon Inc and Oligofectamine transfection reagents. To prioritize genes for functional studies, 2-sided Wilcoxon rank sum tests using the R programming language (http://www.r-project.org) were done to identify genes with a significant difference in gene expression in cell lines with more than 4 copies compared to those with less than 4 copies of the 17q21.3 amplicon. […] Cells were counterstained with Hoechst-33258 to allow identification of nuclei and the percentage of cells positive for nuclear pH3 immunofluorescence, also known as the Mitotic Index (30), was then quantitated for at least 1000 cells per well using Cellomics Target Activation software.
Phosphorylation at Ser10 of histone H3 is tightly correlated with chromosome condensation during M phase, and the percentage of cells that are positive for pH3 staining, or mitotic index, can be determined through an immunofluorescence assay.

Q: “trastuzamab-mc-vc-PAB-MMAF: trastuzamab (Herceptin) conjugated via maleimidocaproyl-valine-citrulline-PAB to MMAF” was tested. Which “sensitivity (mitotic response) of ABCC3 siRNA transfected cells vs control siRNA (NTC) transfected cells” value did it give?
A: more sensitive
